# Source: patent US10183038B2, “Method for preventing and treating renal disease” (L & F Research LLC, priority 2010, dated 2019)
# Test system: patients with recurrent FSGS and biopsy-proven B7-1 podocyte expression
# Assay: Case reports: abatacept and plasmapheresis for early post-transplant recurrent proteinuria
# Format: in vivo, human
# [1] = Case 2, 3 months post-transplant
substance,measurement,setting,value
abatacept,"urinary protein to creatinine ratio, course","Case 1, 1 dose Abatacept (500 mg) with plasmapheresis from POD 3, after peaking at 4.6",decreased progressively
same,creatinine levels,"Case 1, 1.5 years after cessation of plasmapheresis and abatacept treatment",1.3 mg/dL
same,random urinary protein to creatinine ratio,"Case 1, POD 8",0.8 mg/mg
same,serum albumin and total protein levels,"Case 1, after Abatacept and plasmapheresis",increased to normal values
same,serum creatinine level,[1],0.7 mg/dL
same,urine protein/creatinine ratio,[1],1.3
same,"urine protein levels, course","Case 2, single dose of abatacept (500 mg) on POD 9, with plasmapheresis",marked decreased
